Literature values, collected in patent US11285148B1 (King Abdulaziz University, priority 2021, dated 2022).

Substance: fluorescein isothiocyanate [FITC]
- Solubility in water: less than 0.1 mg/ml
